By UniProt entry, the sequences of proteins in these tests, tags left out. Where a name states a change or a piece, a line headed by the entry shows the natural chain unless it says otherwise.
UniProt O15439: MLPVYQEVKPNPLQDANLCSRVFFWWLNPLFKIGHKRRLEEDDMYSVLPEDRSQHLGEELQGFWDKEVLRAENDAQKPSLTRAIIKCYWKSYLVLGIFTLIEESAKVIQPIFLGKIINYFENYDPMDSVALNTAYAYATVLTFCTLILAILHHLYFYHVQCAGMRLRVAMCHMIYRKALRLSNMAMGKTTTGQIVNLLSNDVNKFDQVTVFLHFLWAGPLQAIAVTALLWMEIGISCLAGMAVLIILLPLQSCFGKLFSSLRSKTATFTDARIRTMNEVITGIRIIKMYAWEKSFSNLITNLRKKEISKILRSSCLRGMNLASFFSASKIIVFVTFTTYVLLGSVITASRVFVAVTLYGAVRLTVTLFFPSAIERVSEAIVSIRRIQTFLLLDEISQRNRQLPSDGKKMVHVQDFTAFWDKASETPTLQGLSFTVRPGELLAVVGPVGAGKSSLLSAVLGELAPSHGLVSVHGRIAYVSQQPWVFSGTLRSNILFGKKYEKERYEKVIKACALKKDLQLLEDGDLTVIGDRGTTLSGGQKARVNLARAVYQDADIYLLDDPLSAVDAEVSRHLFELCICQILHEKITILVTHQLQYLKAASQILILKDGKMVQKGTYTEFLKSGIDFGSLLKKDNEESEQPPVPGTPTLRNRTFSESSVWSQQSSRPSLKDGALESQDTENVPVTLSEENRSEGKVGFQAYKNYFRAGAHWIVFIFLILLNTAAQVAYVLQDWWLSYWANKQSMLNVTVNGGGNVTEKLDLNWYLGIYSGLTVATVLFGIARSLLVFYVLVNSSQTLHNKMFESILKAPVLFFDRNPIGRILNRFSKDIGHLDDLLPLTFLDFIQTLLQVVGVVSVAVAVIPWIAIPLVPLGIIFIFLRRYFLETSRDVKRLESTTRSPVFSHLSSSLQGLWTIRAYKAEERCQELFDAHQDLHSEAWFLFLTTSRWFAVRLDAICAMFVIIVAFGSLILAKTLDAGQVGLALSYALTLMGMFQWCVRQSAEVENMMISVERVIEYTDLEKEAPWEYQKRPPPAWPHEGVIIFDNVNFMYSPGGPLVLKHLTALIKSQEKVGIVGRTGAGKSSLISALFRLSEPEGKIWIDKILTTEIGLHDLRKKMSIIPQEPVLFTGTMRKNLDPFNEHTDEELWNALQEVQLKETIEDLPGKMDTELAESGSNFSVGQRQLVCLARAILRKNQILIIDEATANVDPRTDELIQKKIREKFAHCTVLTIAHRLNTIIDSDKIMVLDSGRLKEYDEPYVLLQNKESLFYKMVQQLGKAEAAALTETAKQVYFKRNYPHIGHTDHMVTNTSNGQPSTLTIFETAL

In ChEMBL document CHEMBL4028801, “A multifactorial approach to hepatobiliary transporter assessment enables improved therapeutic compound development” (Toxicol Sci, 2013):

Molecular target: ATP-binding cassette sub-family C member 4 (Homo sapiens, UniProt O15439)
Format: ADME, cell-based

IC50: 6 µM
Structure (SMILES): CN(C)C(=O)CCSC(SCCC(=O)O)c1cccc(/C=C/c2ccc3ccc(Cl)cc3n2)c1 (stereo unspecified) [MK-571]
